The record followed here is patent US10351547B2, “Somatostatin modulators and uses thereof” (priority 2016, dated 2019).

Amino acid sequences for entries named in this document (tags omitted).
UniProt P30874, whole entry: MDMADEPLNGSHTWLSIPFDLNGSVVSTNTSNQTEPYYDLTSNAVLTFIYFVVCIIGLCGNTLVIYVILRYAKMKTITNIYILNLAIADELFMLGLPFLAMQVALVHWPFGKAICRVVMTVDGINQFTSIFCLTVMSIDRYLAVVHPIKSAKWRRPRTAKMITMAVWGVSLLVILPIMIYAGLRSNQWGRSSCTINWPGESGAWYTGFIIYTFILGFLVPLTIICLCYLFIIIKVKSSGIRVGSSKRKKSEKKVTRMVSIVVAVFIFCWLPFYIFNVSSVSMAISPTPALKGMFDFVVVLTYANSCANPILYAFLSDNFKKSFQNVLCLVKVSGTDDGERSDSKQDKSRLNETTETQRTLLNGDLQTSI

One may read the EC50 as the midpoint of the concentration-response curve.

Some results are limits rather than exact numbers.

This experiment addresses human SSTR2 (Homo sapiens (Human), UniProt P30874). Put plainly: Human SSTR2 intracellular cAMP functional assay for agonists (HTRF). The format is cell-based. The conditions noted are these: read-out: EC50 (inhibition of cAMP activities via human SST2R); CHO-K1 cells stably expressing human SSTR2; NKH477-stimulated cAMP. A general note: TR-FRET usually uses a lanthanide donor and a delayed reading to cut background.

With `Cn1ncc(-c2ccc3ncc(-c4cc(F)cc(F)c4)c(N4CC[C@H]5NCCO[C@@H]5C4)c3c2)c1N` (relative stereo), the EC50 was < 10 nM.
